Experimental data taken from ChEMBL document CHEMBL3785033, “Disrupting Acetyl-Lysine Recognition: Progress in the Development of Bromodomain Inhibitors” (J Med Chem, 2016).

Species: Homo sapiens
Assay: Selectivity ratio of Kd for BRD9 (unknown origin) to Kd for human BRPF1B (unknown origin)

Structure (SMILES): COc1cc(C#N)ccc1S(=O)(=O)Nc1ccc2c(c1)cc(C)c(=O)n2C
- Ratio: 32
